Measurements reported in patent EP0927179B1, “SUBSTITUTED BENZOCYCLOHEPTAPYRIDINE DERIVATIVES USEFUL FOR INHIBITION OF FARNESYL PROTEIN TRANSFERASE” (SCHERING CORPORATION, priority 1996, dated 1998).

Columns and labels:
[1] = target: T1, farnesyl protein transferase (Homo sapiens, UniProt P49354+P49356); assay: FPT IC50 (K-ras), inhibition of farnesyl protein transferase, in vitro enzyme assay; assay type: biochemical
Protocol: (§1) FPT IC50 (inhibition of farnesyl protein transferase, in vitro enzyme assay) and COS Cell IC50 (Cell-Based Assay) were determined following the assay procedures described in WO 95/10516, published April 20, 1995. GGPT IC50 (inhibition of geranylgeranyl protein transferase, in vitro enzyme assay), Cell Mat Assay, and anti-tumor activity (in vivo anti-tumor studies) could be determined by the assay procedures described in WO 95/10516. The disclosure of WO 95/10516 is incorporated herein by reference thereto.

[2] = target: T1, farnesyl protein transferase; assay: FPT IC50 (H-ras), inhibition of farnesyl protein transferase, in vitro enzyme assay; assay type: biochemical
Protocol: as §1

| Structure (SMILES) | IC50 [1] [nM] | IC50 [2] [nM] |
| --- | --- | --- |
| CS(=O)(=O)N1CCC(CC(=O)N2CCC([C@H]3c4ncc(Br)cc4CCc4cc(Cl)cc(Br)c43)CC2)CC1 [Example 2] | 8.2 | 2.1 |
| NS(=O)(=O)N1CCC(CC(=O)N2CCC([C@H]3c4ncc(Br)cc4CCc4cc(Cl)cc(Br)c43)CC2)CC1 [Example 4] |  | 2.9 |
